System: SKOV-3 (human HER2-positive) tumor bearing mice
Details: mouse, in vivo, iv, 144 h

[^111In]In-DO3A-BODIPY-Tz-TCO-trastuzumab
Uptake in SKOV-3 tumor: 21.24 ± 5.56 %ID/g
Uptake in blood: 4.15 ± 0.92 %ID/g
Uptake in bone: 1.33 ± 0.31 %ID/g
Uptake in ovaries: 17.20 ± 11.24 %ID/g
Uptake in uterus: 4.94 ± 3.37 %ID/g
